Key:
Format in all cases: biochemical, human
Mcl-1 S121 = experiment: In vitro kinase reactions: percent phosphorylation of full-length recombinant Mcl-1 at S121; settings: for Percent phosphorylation S121, AVE: average of INJ1 and INJ2; for Percent phosphorylation S121, INJ1: sample injection 1; for Percent phosphorylation S121, INJ2: sample injection 2
Procedure: (§1) To determine the suitability of residues in Mcl-1 as kinase substrates, 10 μM of Mcl-1 was incubated with selected kinase at enzyme concentrations between 25 and 100 nM. For these reactions the Mcl-1 was dialyzed into 20 mM Phosphate, 50 mM Tris pH 7.5 150 mM NaCl, 5 mM DTT and 0.5% CHAPS. The protein solution was further supplemented with MgCl2 to 10 mM and ATP to 1 mM prior to addition of kinase. Purified recombinant kinases were purchased from Invitrogen Co. (Carlsbad, Calif.).
(§2) 10 μl of each of the Mcl-1 kinase reactions (100 pmol) were loaded onto a 4-12% Bis-Tris gel for separation by SDS-PAGE after reduction. Mcl-1 bands were excised from the gel, dehydrated (50% acetonitrile in 50 mM ammonium bicarbonate then 100% acetonitrile washes), and incubated with 0.2 μg trypsin overnight at 37° C. Peptides were eluted from the gel using 50% acetonitrile/1% formic acid, dried in a SpeedVac® (Thermo Fisher Savant), reconstituted in 0.1% formic acid containing custom Mcl-1 isotopically labeled synthetic peptides representing tryptic peptides 105-136 and 137-176 (Cell Signaling Technologies, Danvers, Mass.), as follows:
(§3) Samples were injected in duplicate via autosampler onto a nanoAcquity® UPLC (Waters, Milford, Mass.) and analyzed on-line via nanospray ionization into an LTQ-Orbitrap® mass spectrometer at a concentration of 300 fmol synthetic peptide mix per injection. Areas were integrated for the isotopic and kinase phosphorylated peptides, and compared to their non-phosphorylated peptide counterparts to obtain percent phosphorylation values. For phosphorylation analysis of T92, no synthetic peptide was available so peak areas of the phosphorylated peptide covering residues 76-95 was divided by the total occurrence of peptide 76-95 in both phosphorylated and non-phosphorylated forms.

Mcl-1 T163 = experiment: In vitro kinase reactions: percent phosphorylation of full-length recombinant Mcl-1 at T163; settings: single kinase reactions
Procedure: as §1, §2, §3

Mcl-1 S159/T163 = experiment: In vitro kinase reactions: percent phosphorylation of full-length recombinant Mcl-1 at S159+T163; settings: for Percent phosphorylation S159/T163, AVE: average; for Percent phosphorylation S159/T163, INJ1: sample injection 1; for Percent phosphorylation S159/T163, INJ2: sample injection 2
Procedure: as §1, §2, §3

Mcl-1 T92 = experiment: In vitro kinase reactions: percent phosphorylation of full-length recombinant Mcl-1 at T92; settings: single kinase reactions, peak areas of 0 and 1P, triple charged state
Procedure: as §1, §2, §3

[1] = % phos on S159+T163, CDK1 + kinase panel reactions
[2] = % phos on S159+T163, single kinase reactions

- Percent phosphorylation S121, AVE (Mcl-1 S121; CDK1 + kinase panel reactions): 1.48%
- Percent phosphorylation S121, INJ1 (Mcl-1 S121; CDK1 + kinase panel reactions): 1.60%
- Percent phosphorylation S121, INJ2 (Mcl-1 S121; CDK1 + kinase panel reactions): 1.36%
- Percent phosphorylation S121, AVE (Mcl-1 S121; single kinase reactions): 0.78%
- Percent phosphorylation S121, INJ1 (Mcl-1 S121; single kinase reactions): 0.93%
- Percent phosphorylation S121, INJ2 (Mcl-1 S121; single kinase reactions): 0.64%
- Percent phosphorylation T163, AVE (Mcl-1 T163; average of INJ1 and INJ2): 28.93%
- Percent phosphorylation T163, INJ1 (Mcl-1 T163; sample injection 1): 29.31%
- Percent phosphorylation T163, INJ2 (Mcl-1 T163; sample injection 2): 28.55%
- Percent phosphorylation S159/T163, AVE (Mcl-1 S159/T163; [1]): 0.10%
- Percent phosphorylation S159/T163, INJ1 (Mcl-1 S159/T163; [1]): 0.00%
- Percent phosphorylation S159/T163, INJ2 (Mcl-1 S159/T163; [1]): 0.20%
- Percent phosphorylation S159/T163, AVE (Mcl-1 S159/T163; [2]): 0.15%
- Percent phosphorylation S159/T163, INJ1 (Mcl-1 S159/T163; [2]): 0.00%
- Percent phosphorylation S159/T163, INJ2 (Mcl-1 S159/T163; [2]): 0.29%
- Percent phosphorylation T92, AVE (Mcl-1 T92; average): 73.15%
- Percent phosphorylation T92, INJ1 (Mcl-1 T92; sample injection 1): 74.33%
- Percent phosphorylation T92, INJ2 (Mcl-1 T92; sample injection 2): 71.97%
Substance: CDK1: purified recombinant kinase purchased from Invitrogen
